# Test results as given in patent publication US20260215418A1, “HYDROCARBON ALCOHOLS AND THEIR DERIVATIVES AS SYNERGISTS IN PESTICIDE ACTIVITY” (priority 2022, published 2026).
# Test system: Blatta orientalis
# Settings: Table 37, 48 h, concentrations in mg/ml in label
# Description: Method: Contact test on non-porous tile measuring 400 cm^2 at a temperature of 28° C. Test duration: up to 72 hours after exposure of the insect to the insecticidal active substance.
# Three tests were performed in parallel, A, B, and C, as follows: • A) Comparative. 1 ml of Composition 2 was applied to the tile. After waiting for the complete evaporation of the solvent, 10 cockroaches were placed on top of the treated tile, starting the test. • B) According to the invention. 1 ml of Composition 8b was distributed on the tile. After waiting for the complete evaporation of the solvent, 1 ml of Composition 2 was added to the same tile. Subsequently, after waiting for the solvent to evaporate, 10 cockroaches were placed on top of the treated tile, starting the test. • C) According to the invention. 1 ml of Composition 8b was distributed on a tile. After waiting for the complete evaporation of the solvent, 10 cockroaches were placed for 30 minutes on top of the treated tile. At the end of the 30 minutes, the cockroaches were transferred to an untreated area.
# Method: Contact test on non-porous tile measuring 400 cm^2 at a temperature of 28° C. Test duration: up to 120 hours after exposure of the insect to the insecticidal active substance.
# Three tests were performed in parallel, A, B, and C, as follows: • A) Comparative. 1 ml of Composition 4a was applied to the tile. […]
substance,measurement,value
Oleic alcohol [Oleic alcohol 85% (2.96)],Mortality %/time (h) (application),0/48 ^ %
